Results from patent US9720000B2, “Targeted identification of immunogenic peptides” (The Henry M. Jackson Foundation for the Advancement of …, priority 2005, dated 2017).

What was measured:
Assay type in all cases: cell-based
MCF-7 tumor cells = assay: 51Cr-release cytotoxicity (CTX) assay with peptide-stimulated CTL against MCF-7
Protocol: (§1) The binding of trastuzumab (Herceptin) to HER2/neu for the development of novel vaccines against HER2/neu-expressing tumors was studied. The Ab-binding site of trastuzumab (Tz) was analyzed for peptides that bind HLA-A2 and A3. A peptide Her577 (aa; 577-585) within the Ab-binding site on HER2/neu was identified, synthesized and tested. T2 HLA-stabilization assays were performed to confirm HLA-A2 binding activity of Her577 by flow cytometry. PBMC from 9 healthy donors were stimulated with Her577 and tested in ^51Cr-release cytotoxicity (CTX) assays against 3 HER2/neu-expressing tumor cell lines. Her577-stimulated PBMC from 5 HLA-A2^+ healthy donors were also tested in CTX with HER/2/neu^+ targets pre-treated with Tz.

LNCaP tumor cells = assay: 51Cr-release cytotoxicity (CTX) assay with peptide-stimulated CTL against LNCaP
Protocol: as §1

SKOV-3 tumor cells = assay: 51Cr-release cytotoxicity (CTX) assay with peptide-stimulated CTL against SKOV-3
Protocol: as §1

[1] = 10 and 50 μg/ml doses of Tz, Her577-stimulated CTL

Substance | average specific CTX (% lysis) against MCF-7 (MCF-7 tumor cells; peptide-stimulated CTL from healthy donor PBMC, MCF-7 (HLA-A2+), n = 5) | average specific CTX (% lysis) against LNCaP (LNCaP tumor cells; peptide-stimulated CTL from healthy donor PBMC, LNCaP (HLA-A2+), n = 2) | average specific CTX (% lysis) against SKOV-3 (SKOV-3 tumor cells; peptide-stimulated CTL from healthy donor PBMC, SKOV-3 (HLA-A3+), n = 2) | change in CTX against MCF-7 with Tz dose (MCF-7 tumor cells; [1]) | change in CTX against LNCaP with Tz dose (LNCaP tumor cells; [1]) | change in CTX against SKOV-3 with Tz dose (SKOV-3 tumor cells; [1])
E75: immunogenic peptide from HER2/neu; E75 vaccine sequence (SEQ ID NO: 2) | 51 ± 4 % lysis | 30 ± 1 % lysis | 51 ± 20 % lysis | – | – | –
trastuzumab [Tz] | – | – | – | dose-dependent incremental increase | dose-dependent incremental increase | dose-dependent incremental increase
